The record followed here is USRE47404E1, “Viral hepatitis treatment” (priority 2006, dated 2019).

In one data set the test system is JWT cells. Kind of data set: Cytotoxicity, neutral red dye uptake, JWT. It is filed as cell-based. An excerpt:
(§1) Selectivity index=CC50 divided by EC50.

Data set [1] relates to RP7 cells (Huh-7 derived). Kind of data set: Cytotoxicity, neutral red dye uptake, RP7. In kind it is cell-based. Conditions: interferon α-2b in IU/ml. As for the experimental part: as §1
The parental replicon-containing cell line was established by electroporation of RNA transcribed in vitro off of the Sca-I-linearized Bart 79I plasmid into Huh-7 cells (Elazar et al., 2003). Bart79I encodes for a second-generation high-efficiency bi-cistronic sub-genomic replicon of genotype 1b containing a single adaptive mutation (S1179I) in the NS5A gene, and the neomycinphosphotransferase gene in the first cistron. The electroporated cells were plated along with naïve Huh-7 feeder cells and grown in medium—DMEM (4.5 g/l glucose, L-glutamine and sodium pyruvate—Mediatech 10-013-CV), 10% fetal bovine serum, 1% Penicillin-streptomycin, 1% L-glutamine (final concentration 2 mM), 1×MEM Non-Essential Amino Acids (100×) (Invitrogen)—and 1 mg/ml G418. After 3 weeks, G418-resistant colonies appeared. One of the resulting colonies was isolated, expanded, passaged in 700 μg/ml G418, and termed RP-7.

The next data set relates to 4-3-10 cells. Kind of data set: Cytotoxicity, neutral red dye uptake, 4-3-10. It is filed as cell-based.
Source text: as §1

The test system of the next data set is AVA5 cells. The experiment in a line: Cytotoxicity, neutral red dye uptake, AVA5. In kind it is cell-based. Conditions: interferon α-2b in IU/ml.
Source text: as §1

The next data set concerns H/FL-Neo cells. Kind of data set: Cytotoxicity, neutral red dye uptake, H/FL-Neo. In kind it is cell-based. Conditions: interferon α-2b in IU/ml.
Source text: as §1

Data set [2] relates to HCV replication in AVA5 replicon cell line (subgenomic construct of genotype 1b). Conditions: AVA5 cell cultures (Table 2). The method, then: Antiviral activity of nitazoxanide, tizoxanide, interferon α, ribavirin and 2′-C-methyl cytidine was assessed in five different HCV replicon cell lines: (1) AVA5, a subgenomic construct of genotype 1b (Blight et al., 2000, Science 290:1972-1974); (2) H/FL-Neo, a genotype 1a full length construct (Blight et al., 2003, Journal of Virology 77:3181-3190); (3) JWT, a subgenomic construct of genotype 1b (Pfeiffer and Kirkegaard, 2005, Journal of Virology, 79:2346-2355); (4) 4-3-10, a subgenomic construct of genotype 1b, developed by a protocol that involved serial passage of JWT cells in 100 μM for one month followed by 400 μM ribavirin for two weeks (Pfeiffer and Kirkegaard, 2005, Journal of Virology, 79:2346-2355); and (5) RP7, a subgenomic construct of genotype 1b (Elazar et al., 2003, Journal of Virology 77:6055-6061).
Antiviral activity for each test compound was determined as previously described (Okuse et al., 2005, Antiviral Research 65:23-34). Briefly, replicon cell lines were maintained as sub-confluent cultures on 96-well plates. […] Twenty-four hours after the last dose of compound, antiviral activity was determined by blot hybridization analysis of intracellular HCV RNA, and cytotoxicity was assessed by neutral red dye uptake. EC50, EC90, CC50 and selectivity index were calculated for each compound tested in a replicon cell line. […]

For Interferon α-2b, the CC50 (in the data set with JWT cells; in data set [1]; in the data set on 4-3-10 cells; in the data set on AVA5 cells; with H/FL-Neo cells) was greater than 10000 IU/ml throughout. Moreover, in data set [2], the “S.I. = CC50/EC50” value is reported as greater than 5263.
